The results in this text go back to paper PMC7384330 (Neuropharmacology, 2018).

The test concerns the target T1, human Avpr1b vasopressin receptor (Homo sapiens, UniProt P47901).
T1 sequence (P47901 1-424): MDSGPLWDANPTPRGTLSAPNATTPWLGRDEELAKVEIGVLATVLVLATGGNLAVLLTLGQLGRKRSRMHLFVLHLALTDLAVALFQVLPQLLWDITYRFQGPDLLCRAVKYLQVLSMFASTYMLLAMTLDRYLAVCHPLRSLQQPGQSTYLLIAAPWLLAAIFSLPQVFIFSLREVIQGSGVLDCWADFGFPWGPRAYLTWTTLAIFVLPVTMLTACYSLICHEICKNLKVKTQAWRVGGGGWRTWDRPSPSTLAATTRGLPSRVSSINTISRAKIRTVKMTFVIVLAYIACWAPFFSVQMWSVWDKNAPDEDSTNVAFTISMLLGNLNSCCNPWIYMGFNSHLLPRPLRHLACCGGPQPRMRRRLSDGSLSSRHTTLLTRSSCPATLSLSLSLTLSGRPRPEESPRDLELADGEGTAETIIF
Put plainly: Calcium mobilization assay, CHO-V1b. The test is classed as cell-based. Conditions: ratio of EC50, calcium mobilization.

For `Cc1cc(C(=O)N2Cc3cnn(C)c3Nc3ccccc32)ccc1CNC(=O)N1CCC[C@H]1C(=S)N1CCCN(C)CC1` [TC-OT-39, (2S)-N-[[4-[(4,10-Dihydro-1-methylpyrazolo[3,4-b][1,5]benzodiazepin-5(1H)-yl)carbonyl]-2-methylphenyl]methyl]-2-[(hexahydro-4-methyl-1H-1,4-diazepin-1-yl)thioxomethyl]-1-pyrrolidinecarboxamide], the “selectivity for human OXTR versus human Avpr1b” value was determined as 24 fold.
